Data: article PMC3237002, “Molecular Conversion of Muscarinic Acetylcholine Receptor M5 to Muscarinic Toxin 7 (MT7)-Binding Protein” (Toxins, 2011)

By UniProt entry, the sequences of proteins in these tests, tags left out.
UniProt P08912, whole entry K175E/Q184Y/V474E: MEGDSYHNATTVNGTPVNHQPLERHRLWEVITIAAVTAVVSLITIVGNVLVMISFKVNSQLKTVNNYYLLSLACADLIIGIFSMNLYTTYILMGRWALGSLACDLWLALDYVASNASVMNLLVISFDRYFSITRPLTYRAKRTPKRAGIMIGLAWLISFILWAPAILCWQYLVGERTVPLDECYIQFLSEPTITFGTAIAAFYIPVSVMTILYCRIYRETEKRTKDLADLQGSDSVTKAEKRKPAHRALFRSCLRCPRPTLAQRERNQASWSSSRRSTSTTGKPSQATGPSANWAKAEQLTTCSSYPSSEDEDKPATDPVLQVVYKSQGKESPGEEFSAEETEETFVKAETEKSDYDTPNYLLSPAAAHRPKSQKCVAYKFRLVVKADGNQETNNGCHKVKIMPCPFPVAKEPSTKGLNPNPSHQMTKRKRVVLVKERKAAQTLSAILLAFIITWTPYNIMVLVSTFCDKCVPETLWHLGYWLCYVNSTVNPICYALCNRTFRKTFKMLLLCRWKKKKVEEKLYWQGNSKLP
UniProt P08912, whole entry: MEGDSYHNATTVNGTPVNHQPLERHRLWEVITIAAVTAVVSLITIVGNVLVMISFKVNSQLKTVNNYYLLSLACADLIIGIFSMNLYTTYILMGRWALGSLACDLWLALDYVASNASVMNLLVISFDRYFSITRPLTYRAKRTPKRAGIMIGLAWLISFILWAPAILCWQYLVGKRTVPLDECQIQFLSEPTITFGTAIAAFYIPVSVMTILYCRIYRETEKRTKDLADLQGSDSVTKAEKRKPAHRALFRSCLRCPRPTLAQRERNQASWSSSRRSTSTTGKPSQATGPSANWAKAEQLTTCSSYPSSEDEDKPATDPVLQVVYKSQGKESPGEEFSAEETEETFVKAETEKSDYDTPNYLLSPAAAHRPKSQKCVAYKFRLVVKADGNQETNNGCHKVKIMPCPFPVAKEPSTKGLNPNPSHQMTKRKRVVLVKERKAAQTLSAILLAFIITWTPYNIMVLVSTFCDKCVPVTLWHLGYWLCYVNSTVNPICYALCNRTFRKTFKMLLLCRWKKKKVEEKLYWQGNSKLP

What was measured:
[1] = biological target: M5-EYE (M5-E175Y184E474) receptor construct (Homo sapiens, UniProt P08912, K175E/Q184Y/V474E)
M5 receptor = M5 receptor (Homo sapiens, UniProt P08912)

C[N+](C)(C)CCOC(N)=O [CCh, Carbamoylcholine chloride]
Max. Δ[Ca2+]i [1]: 246 ± 33 nM | Max. Δ[Ca2+]i (M5 receptor): 498 ± 10 nM
